One data set addresses GPER (Homo sapiens, UniProt Q99527). The data set can be described thus: cAMP HTRF antagonism assay (G-1 induced inhibition of adenylate cyclase) in HL-60 cells. (In general: TR-FRET usually uses a lanthanide donor and a delayed reading to cut background.)
For a further data set, the target named is ERα (Homo sapiens, UniProt P03372). The data set can be described thus: ERα PolarScreen fluorescence polarization competitor assay. To be noted: any tested concentration. (In general: Fluorescence polarisation rises when a labelled molecule tumbles more slowly, as on binding a larger partner.)
Another data set has as its target ERβ (Homo sapiens, UniProt Q92731). The data set can be described thus: ERβ PolarScreen fluorescence polarization competitor assay. The note with it: 10 μM.
The conditions of data set [1]: cited from earlier work.

Chains of the proteins cited; added tags and fusions are not shown.
UniProt Q99527, whole entry: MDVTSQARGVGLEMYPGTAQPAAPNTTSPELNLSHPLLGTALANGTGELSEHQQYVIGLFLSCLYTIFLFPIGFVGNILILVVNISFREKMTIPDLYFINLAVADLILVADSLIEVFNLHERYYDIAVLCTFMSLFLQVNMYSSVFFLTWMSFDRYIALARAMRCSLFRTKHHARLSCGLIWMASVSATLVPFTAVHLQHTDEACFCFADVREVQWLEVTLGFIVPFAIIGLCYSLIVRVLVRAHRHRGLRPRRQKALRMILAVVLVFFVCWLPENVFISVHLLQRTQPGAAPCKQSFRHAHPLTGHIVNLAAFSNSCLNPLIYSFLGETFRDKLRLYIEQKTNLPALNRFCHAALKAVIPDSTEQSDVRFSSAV
UniProt P03372, whole entry: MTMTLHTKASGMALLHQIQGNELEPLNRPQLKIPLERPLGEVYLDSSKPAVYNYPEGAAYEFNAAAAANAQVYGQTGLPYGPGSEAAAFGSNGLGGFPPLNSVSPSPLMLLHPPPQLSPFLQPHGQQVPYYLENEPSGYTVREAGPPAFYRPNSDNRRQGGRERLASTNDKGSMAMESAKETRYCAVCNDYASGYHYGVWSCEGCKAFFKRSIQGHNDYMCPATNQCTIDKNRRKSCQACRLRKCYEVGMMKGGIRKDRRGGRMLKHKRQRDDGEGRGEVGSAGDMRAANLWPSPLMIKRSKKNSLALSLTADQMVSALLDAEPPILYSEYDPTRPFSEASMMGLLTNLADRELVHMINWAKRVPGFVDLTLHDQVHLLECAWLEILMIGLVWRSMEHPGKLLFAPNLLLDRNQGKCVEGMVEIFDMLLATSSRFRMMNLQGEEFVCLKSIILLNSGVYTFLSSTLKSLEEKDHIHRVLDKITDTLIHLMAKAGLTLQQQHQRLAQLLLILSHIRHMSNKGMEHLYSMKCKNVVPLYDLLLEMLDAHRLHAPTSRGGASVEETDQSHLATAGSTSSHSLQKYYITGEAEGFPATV
UniProt Q92731, whole entry: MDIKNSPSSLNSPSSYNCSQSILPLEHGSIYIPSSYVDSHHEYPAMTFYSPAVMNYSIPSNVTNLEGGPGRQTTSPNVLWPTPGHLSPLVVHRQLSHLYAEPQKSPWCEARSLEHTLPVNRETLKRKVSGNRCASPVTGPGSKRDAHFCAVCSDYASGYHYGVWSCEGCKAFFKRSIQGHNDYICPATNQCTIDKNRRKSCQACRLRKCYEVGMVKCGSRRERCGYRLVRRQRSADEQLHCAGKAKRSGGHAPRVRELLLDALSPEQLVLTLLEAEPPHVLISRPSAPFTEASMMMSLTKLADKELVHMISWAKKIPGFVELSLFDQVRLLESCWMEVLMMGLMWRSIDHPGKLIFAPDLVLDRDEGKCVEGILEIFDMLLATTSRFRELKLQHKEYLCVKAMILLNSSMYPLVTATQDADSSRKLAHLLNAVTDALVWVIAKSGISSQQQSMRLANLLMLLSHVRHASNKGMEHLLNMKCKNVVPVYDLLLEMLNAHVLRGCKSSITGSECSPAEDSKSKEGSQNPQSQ

In the case of `CC(C)c1ccc2c(c1)C1C=CCC1C(c1cc3c(cc1Br)OCO3)N2` (centres unmarked), the “Antagonism of G-1 induced inhibition of adenylate cyclase” value was “also observed, less so” at GPER (100 nM) and “caused a decrease in adenylate cyclase inhibition” at GPER (1 μM exposure). The ERα binding result at ERα is recorded as “no appreciable binding”. In addition, the ERβ binding entry on ERβ is reported as “exhibited binding”. The solubility result in data set [1] is reported as “limited solubility”.
As for `Brc1cc2c(cc1C1Nc3ccccc3C3C=CCC31)OCO2` (centres unmarked), the solubility entry in data set [1] is recorded as “limited solubility”.
For `CC(=O)c1ccc2c(c1)C1C=CCC1C(c1cc3c(cc1Br)OCO3)N2` (centres unmarked), the ERα binding entry on ERα is “no appreciable binding”. Also, on ERβ, the ERβ binding result is listed as “exhibited binding”.

The values above are taken from patent publication US11634378B2, “Compounds and methods targeting GPER in calcium disorders” (Saint Louis University, priority 2017, dated 2023).
